This experiment is filed under the species Homo sapiens. Put plainly: Selectivity ratio of EC50 of TLR8 (unknown origin) to EC50 for TLR7 (unknown origin).

In the case of `CCCN(CCC)C(=O)C1=Cc2ccc(-c3ccc(C(=O)N4CCCC4)cc3)cc2N=C(N)C1`, the Ratio EC50 came to 50.

These data come from ChEMBL document CHEMBL5233237, “Agonist and antagonist ligands of toll-like receptors 7 and 8: Ingenious tools for therapeutic purposes” (Eur J Med Chem, 2020).
